SMILES strings stand for the structures.

By UniProt entry, the sequences of proteins in these tests, tags left out. Residues count along the entry.
UniProt P00742, 41-179 limits assumed: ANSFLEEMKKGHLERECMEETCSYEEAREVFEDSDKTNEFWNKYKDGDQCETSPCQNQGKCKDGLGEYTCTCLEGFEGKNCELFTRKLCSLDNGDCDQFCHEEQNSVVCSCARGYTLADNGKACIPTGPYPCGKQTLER
UniProt P00742, 235-488 limits assumed: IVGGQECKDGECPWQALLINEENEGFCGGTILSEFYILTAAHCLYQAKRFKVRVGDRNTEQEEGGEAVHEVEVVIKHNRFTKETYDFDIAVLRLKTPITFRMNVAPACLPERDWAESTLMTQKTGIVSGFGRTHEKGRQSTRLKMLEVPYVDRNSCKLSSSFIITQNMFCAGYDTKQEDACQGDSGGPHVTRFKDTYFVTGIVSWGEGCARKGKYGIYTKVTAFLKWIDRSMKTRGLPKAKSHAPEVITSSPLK

Usually Ki stands for a dissociation constant, usually derived from enzyme kinetics or from competition with a known ligand. A lower Ki goes with a stronger hold on the target.

The target in this experiment is Coagulation factor X (Homo sapiens, UniProt P00742). Description: Binding affinity against human coagulation factor X.

For `N=C(N)c1ccc2nc(-c3cccc(-c4ccccc4)c3O)[nH]c2c1`, the Ki was determined as 2100 nM.

Source of the values: ChEMBL document CHEMBL1134564, “Development of serine protease inhibitors displaying a multicentered short (<2.3 A) hydrogen bond binding mode: inhibitors of urokinase-type plasminogen activator and factor Xa” (J Med Chem, 2001).
